ChEMBL document CHEMBL3580663, “C7β-methyl analogues of the orvinols: the discovery of kappa opioid antagonists with nociceptin/orphanin FQ peptide (NOP) receptor partial agonism and low, or zero, efficacy at mu opioid receptors” (2015)

Amino acid sequences for entries named in this document (tags omitted).
UniProt P33535, whole entry, looked up: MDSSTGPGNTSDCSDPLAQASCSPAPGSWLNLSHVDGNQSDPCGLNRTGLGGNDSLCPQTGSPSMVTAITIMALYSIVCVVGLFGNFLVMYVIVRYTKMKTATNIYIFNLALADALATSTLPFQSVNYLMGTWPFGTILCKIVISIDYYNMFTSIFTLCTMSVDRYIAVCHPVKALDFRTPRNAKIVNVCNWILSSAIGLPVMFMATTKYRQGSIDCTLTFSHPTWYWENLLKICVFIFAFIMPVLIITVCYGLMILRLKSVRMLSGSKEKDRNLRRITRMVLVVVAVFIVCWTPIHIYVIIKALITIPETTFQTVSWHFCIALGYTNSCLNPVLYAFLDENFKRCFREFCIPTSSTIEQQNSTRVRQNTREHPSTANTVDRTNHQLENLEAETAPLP
UniProt P33533, whole entry, looked up: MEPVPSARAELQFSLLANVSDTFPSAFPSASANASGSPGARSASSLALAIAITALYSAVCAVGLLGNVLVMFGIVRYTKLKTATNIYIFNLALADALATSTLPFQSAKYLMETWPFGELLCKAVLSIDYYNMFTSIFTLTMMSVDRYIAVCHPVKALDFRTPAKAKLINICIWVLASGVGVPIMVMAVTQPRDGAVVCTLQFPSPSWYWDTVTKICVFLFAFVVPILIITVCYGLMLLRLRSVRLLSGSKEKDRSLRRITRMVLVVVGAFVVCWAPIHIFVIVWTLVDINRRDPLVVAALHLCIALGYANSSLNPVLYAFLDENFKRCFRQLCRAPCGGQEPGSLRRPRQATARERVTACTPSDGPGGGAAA

Key:
[1] = target: Mu-type opioid receptor (Rattus norvegicus) (UniProt P33535); assay: Agonist activity at rat mu opioid receptor expressed in rat C6 cell membranes assessed as stimulation of [35S]GTPgammaS binding at 10 uM relative to DAMGO
[2] = target: Delta-type opioid receptor (Rattus norvegicus) (UniProt P33533); assay: Agonist activity at rat delta opioid receptor expressed in rat C6 cell membranes assessed as stimulation of [35S]GTPgammaS binding at 10 uM relative to DPDPE

Compound: CO[C@@]12CC[C@@]3(C[C@@H]1[C@](C)(O)C(C)(C)C)[C@H]1Cc4ccc(O)c5c4[C@@]3(CCN1CC1CC1)[C@H]2O5
- %max [1]: 20%
- %max [2]: 7%
